From patent US20090099157A1, “TETRAHYDRO-PYRAZOLO-PYRIDINE THIOETHER MODULATORS OF CATHEPSIN S” (priority 2007, published 2009)

By UniProt entry, the sequences of proteins in these tests, tags left out. Residues count along the entry.
UniProt P25774, 115-331: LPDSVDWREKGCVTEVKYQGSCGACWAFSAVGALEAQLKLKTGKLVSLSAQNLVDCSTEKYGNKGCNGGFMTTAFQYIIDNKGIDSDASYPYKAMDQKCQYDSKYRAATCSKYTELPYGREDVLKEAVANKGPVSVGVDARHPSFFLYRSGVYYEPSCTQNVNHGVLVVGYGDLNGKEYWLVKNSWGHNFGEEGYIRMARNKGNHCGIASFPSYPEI

Each compound was assayed against Recombinant human cathepsin S (CatS) (Homo sapiens, UniProt P25774) (assay: biochemical).

Question: For `CS(=O)(=O)N1CCc2c(c(-c3ccc(C(F)(F)F)c(SCCN4CCC(F)CC4)c3)nn2C[C@@H](O)CN2CCC[C@@H](C(=O)O)C2)C1` [Example 614, (3R)-1-[(2S)-3-{3-[3-{[2-(4-Fluoropiperidin-1-yl)ethyl]sulfanyl}-4-(trifluoromethyl)phenyl]-5-(methylsulfonyl)-4,5,6,7-tetrahydro-1H-pyrazolo[4,3-c]pyridin-1-yl}-2-hydroxypropyl]piperidine-3-carboxylic acid], which IC50 is on record?
Answer: Its IC50 is 190 nM.

Question: For `CC(C)(C)C1CCN(C[C@H](O)Cn2nc(-c3ccc(C(F)(F)F)c(SCCN4CCCC(F)C4)c3)c3c2CCN(S(C)(=O)=O)C3)CC1` (stereo partly drawn) [Example 652, (2S)-1-[4-(1,1-Dimethylethyl)piperidin-1-yl]-3-{3-[3-{[2-(3-fluoropiperidin-1-yl)ethyl]sulfanyl}-4-(trifluoromethyl)phenyl]-5-(methylsulfonyl)-4,5,6,7-tetrahydro-1H-pyrazolo[4,3-c]pyridin-1-yl}propan-2-ol], which IC50 is on record?
Answer: Its IC50 is 70 nM.

Question: `CS(=O)(=O)N1CCc2c(c(-c3ccc(C(F)(F)F)c(SCCN4CCC(F)(F)CC4)c3)nn2C[C@@H](O)CN2CCC(C(N)=O)CC2)C1` [Example 667, 1-[(2S)-3-{3-[3-{[2-(4,4-Difluoropiperidin-1-yl)ethyl]sulfanyl}-4-(trifluoromethyl)phenyl]-5-(methylsulfonyl)-4,5,6,7-tetrahydro-1H-pyrazolo[4,3-c]pyridin-1-yl}-2-hydroxypropyl]piperidine-4-carboxamide] was tested. Which IC50 did it give?
Answer: The IC50 was 85 nM.

Question: For `CC1CCN(C[C@H](O)Cn2nc(-c3ccc(C(F)(F)F)c(SCCN4CCC(F)CC4)c3)c3c2CCN(S(C)(=O)=O)C3)CC1` [Example 474, (2S)-1-{3-[3-{[2-(4-Fluoropiperidin-1-yl)ethyl]sulfanyl}-4-(trifluoromethyl)phenyl]-5-(methylsulfonyl)-4,5,6,7-tetrahydro-1H-pyrazolo[4,3-c]pyridin-1-yl}-3-(4-methylpiperidin-1-yl)propan-2-ol], which IC50 is on record?
Answer: Its IC50 is 100 nM.

Question: `CN(C)CC1CCCN(CCCn2nc(-c3ccc(C(F)(F)F)c(SCCN4CCCCC4)c3)c3c2CCN(S(C)(=O)=O)C3)C1` (stereo not drawn) [Example 535, N,N-Dimethyl-1-(1-{3-[5-(methylsulfonyl)-3-{3-[(2-piperidin-1-ylethyl)sulfanyl]-4-(trifluoromethyl)phenyl}-4,5,6,7-tetrahydro-1H-pyrazolo[4,3-c]pyridin-1-yl]propyl}piperidin-3-yl)methanamine] was tested. Which IC50 did it give?
Answer: The IC50 was 940 nM.

Question: `CC(=O)N1CCc2c(c(-c3ccc(C(F)(F)F)c(SCC(=O)N4CCCC4)c3)nn2CC(O)CN2CCc3ccccc3C2)C1` (stereo not drawn) [Example 369, 1-(5-Acetyl-3-{3-[(2-oxo-2-pyrrolidin-1-ylethyl)sulfanyl]-4-(trifluoromethyl)phenyl}-4,5,6,7-tetrahydro-1H-pyrazolo[4,3-c]pyridin-1-yl)-3-(3,4-dihydroisoquinolin-2(1H)-yl)propan-2-ol] was tested. Which IC50 did it give?
Answer: Its IC50 is 270 nM.

Question: `CS(=O)(=O)N1CCc2c(c(-c3ccc(C(F)(F)F)c(SCCN4CCCC(O)C4)c3)nn2CC(O)CN2CCC(O)(c3ccccn3)CC2)C1` (stereo not drawn) [Example 192, 1-(2-{[5-{1-[2-Hydroxy-3-(4-hydroxy-4-pyridin-2-ylpiperidin-1-yl)propyl]-5-(methylsulfonyl)-4,5,6,7-tetrahydro-1H-pyrazolo[4,3-c]pyridin-3-yl}-2-(trifluoromethyl)phenyl]sulfanyl}ethyl)piperidin-3-ol] was tested. Which IC50 did it give?
Answer: Its IC50 is 80 nM.

Question: With `CS(=O)(=O)N1CCc2c(c(-c3ccc(C(F)(F)F)c(SCCN4CCC(F)(F)CC4)c3)nn2C[C@@H](O)CN2CCSCC2)C1` [Example 589, (2S)-1-{3-[3-{[2-(4,4-Difluoropiperidin-1-yl)ethyl]sulfanyl}-4-(trifluoromethyl)phenyl]-5-(methylsulfonyl)-4,5,6,7-tetrahydro-1H-pyrazolo[4,3-c]pyridin-1-yl}-3-thiomorpholin-4-ylpropan-2-ol] as the compound, how does the IC50 read?
Answer: Its IC50 is 160 nM.

Question: Which IC50 does the source give for `CS(=O)(=O)N1CCc2c(c(-c3ccc(C(F)(F)F)c(SCCN4CCCC4)c3)nn2CC(O)CN2CCC3(CC2)OCCCO3)C1` (stereo not drawn) [Example 601, 1-(1,5-Dioxa-9-azaspiro[5.5]undec-9-yl)-3-[5-(methylsulfonyl)-3-{3-[(2-pyrrolidin-1-ylethyl)sulfanyl]-4-(trifluoromethyl)phenyl}-4,5,6,7-tetrahydro-1H-pyrazolo[4,3-c]pyridin-1-yl]propan-2-ol] here?
Answer: The IC50 was 530 nM.

Question: Which IC50 does the source give for `CS(=O)(=O)N1CCc2c(c(-c3ccc(C(F)(F)F)c(SCCN4CCCCC4)c3)nn2CC(O)CN2CCC(N3CCCC3)CC2)C1` (stereo not drawn) [Example 641, 1-[5-(Methylsulfonyl)-3-{3-[(2-piperidin-1-ylethyl)sulfanyl]-4-(trifluoromethyl)phenyl}-4,5,6,7-tetrahydro-1H-pyrazolo[4,3-c]pyridin-1-yl]-3-(4-pyrrolidin-1-ylpiperidin-1-yl)propan-2-ol] here?
Answer: The IC50 was 220 nM.

Question: For `CS(=O)(=O)N1CCc2c(c(-c3ccc(C(F)(F)F)c(SCCN4CCC(F)CC4)c3)nn2C[C@@H](O)CN2CCC3(CC2)OCCCO3)C1` [Example 701, (2S)-1-(1,5-Dioxa-9-azaspiro[5.5]undec-9-yl)-3-{3-[3-{[2-(4-fluoropiperidin-1-yl)ethyl]sulfanyl}-4-(trifluoromethyl)phenyl]-5-(methylsulfonyl)-4,5,6,7-tetrahydro-1H-pyrazolo[4,3-c]pyridin-1-yl}propan-2-ol], which IC50 is on record?
Answer: The IC50 was 200 nM.

Question: For `CC1C(=O)NCCN1CCSc1cc(-c2nn(CC(O)CN3CCC(NS(C)(=O)=O)CC3)c3c2CN(S(C)(=O)=O)CC3)ccc1C(F)(F)F` (stereo not drawn) [Example 832, N-[1-(2-Hydroxy-3-{3-[3-{[2-(2-methyl-3-oxopiperazin-1-yl)ethyl]sulfanyl}-4-(trifluoromethyl)phenyl]-5-(methylsulfonyl)-4,5,6,7-tetrahydro-1H-pyrazolo[4,3-c]pyridin-1-yl}propyl)piperidin-4-yl]methanesulfonamide], which IC50 is on record?
Answer: Its IC50 is 320 nM.

Question: For `CS(=O)(=O)N1CCc2c(c(-c3ccc(C(F)(F)F)c(SCCN4CCCCC4c4ccccc4)c3)nn2CCCN2CCC(N3CCCC3=O)CC2)C1` (stereo not drawn) [Example 35, 1-{1-[3-(5-Methanesulfonyl-3-{3-[2-(2-phenyl-piperidin-1-yl)-ethylsulfanyl]-4-trifluoromethyl-phenyl}-4,5,6,7-tetrahydro-pyrazolo[4,3-c]pyridin-1-yl)-propyl]-piperidin-4-yl}-pyrrolidin-2-one], which IC50 is on record?
Answer: Its IC50 is 2110 nM.

Question: For `CS(=O)(=O)N1CCc2c(c(-c3ccc(C(F)(F)F)c(SCC(=O)N4CCCCC4)c3)nn2CC(O)CN2CCC(C(=O)N3CCCC3)CC2)C1` (stereo not drawn) [Example 259, 1-[5-(Methylsulfonyl)-3-{3-[(2-oxo-2-piperidin-1-ylethyl)sulfanyl]-4-(trifluoromethyl)phenyl}-4,5,6,7-tetrahydro-1H-pyrazolo[4,3-c]pyridin-1-yl]-3-[4-(pyrrolidin-1-ylcarbonyl)piperidin-1-yl]propan-2-ol], which IC50 is on record?
Answer: The IC50 was 60 nM.

Question: `CS(=O)(=O)N1CCc2c(c(-c3ccc(C(F)(F)F)c(SCCN4CCCC4)c3)nn2CC(O)CN2CCC(C(=O)N3CCCC3)CC2)C1` (stereo not drawn) [Example 680, 1-[5-(Methylsulfonyl)-3-{3-[(2-pyrrolidin-1-ylethyl)sulfanyl]-4-(trifluoromethyl)phenyl}-4,5,6,7-tetrahydro-1H-pyrazolo[4,3-c]pyridin-1-yl]-3-[4-(pyrrolidin-1-ylcarbonyl)piperidin-1-yl]propan-2-ol] was tested. Which IC50 did it give?
Answer: The IC50 was 110 nM.
